# Values of other authors as cited in paper PMC9243654 (Frontiers in Nutrition, 2022).
# Where two headings read alike, the source gives them in different places.
# Details: ref PubChem database, cited from earlier work
smiles,measurement,setting,value
COc1cc(C=O)ccc1O [Vanillin],Log P,compounds identified in LPLE extract,1.2
same,Log P,compounds of ASFE extract,1.2
